# Laboratory results reported in patent publication EP3930714B1, “USE OF CASEINOLYTIC PROTEASE P FUNCTION AS A BIOMARKER OF DRUG RESPONSE TO IMIPRIDONE-LIKE AGENTS AND COMPOUNDS FOR SUCH USE” (dated 2026).
# Chains of the proteins cited; added tags and fusions are not shown. Residues count along the entry.
# UniProt Q16740, 57-277 limits assumed: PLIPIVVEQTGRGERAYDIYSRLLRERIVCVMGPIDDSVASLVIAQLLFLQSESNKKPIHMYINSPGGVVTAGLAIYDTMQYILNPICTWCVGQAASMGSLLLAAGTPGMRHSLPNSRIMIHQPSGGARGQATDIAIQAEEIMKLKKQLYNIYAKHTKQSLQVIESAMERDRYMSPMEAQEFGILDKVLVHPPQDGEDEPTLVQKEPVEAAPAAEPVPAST
# Key:
# ClpX and TUFM = ClpX and TUFM protein levels by Western blot in SUM159 cells; conditions: Western blots, concentration response and time course
# hClpP = hClpP (Homo sapiens, UniProt Q16740); test: hClpP binding to compound immobilized on Sepharose beads and competition, HELA cell lysates, Western blot
# [1] = molecular target: recombinant human caseinolytic peptidase hClpP (Homo sapiens, UniProt Q16740); test: hClpP peptide hydrolysis assay (coumarin release from Ac-WLA-AMC); conditions: purified hClpP
Compound,ClpX and TUFM protein (ClpX and TUFM),hClpP binding to compound coupled to Sepharose beads (hClpP),Dose-dependency of hClpP activation [1]
Cc1ccccc1CN1C(=O)C2=C(CCN(Cc3ccccc3)C2)N2CCN=C12,reduction of the protein ClpX and TUFM,–,–
N#Cc1cccc(CN2CCc3c(c(=O)n(Cc4ccc(Cl)cc4)c(=O)n3CCCCN)C2)c1,–,hClpP directly binds,–
N#Cc1cccc(CN2CCc3c(c(=O)n(Cc4ccc(C(F)(F)F)cc4)c(=O)n3CCCN)C2)c1,–,hClpP directly binds,dose-dependent increases in hClpP activity
N#Cc1cccc(CN2CCc3c(c(=O)n(Cc4ccc(C(F)(F)F)cc4)c(=O)n3CCCCN)C2)c1,–,hClpP directly binds,–
N#Cc1cccc(CC2CCC3=C(C2)C(=O)N(Cc2ccc(C(F)(F)F)cc2)C2=NCCN23)c1 (centres unmarked),–,–,Dose-dependent increases in hClpP activity
N#Cc1cccc(CN2CCC3=C(C2)C(=O)N(Cc2ccc(C(F)(F)F)cc2)C2=NCCCN23)c1,–,–,Dose-dependent increases in hClpP activity
N#Cc1cccc(CC2CCC3=C(C2)C(=O)N(Cc2ccc(Cl)cc2)C2=NCCN23)c1 (centres unmarked),–,–,Dose-dependent increases in hClpP activity
